According to publication PMC6568389 (PLoS ONE, 2019):

B1: biotinylated Infliximab (antibody, V domains shown)
VH: EVKLEESGGGLVQPGGSMKLSCVASGFIFSNHWMNWVRQSPEKGLEWVAEIRSKSINSATHYAESVKGRFTISRDDSKSAVYLQMTDLRTEDTGVYYCSRNYYGSTYDYWGQGTTLTVSS
VL: DILLTQSPAILSVSPGERVSFSCRASQFVGSSIHWYQQRTNGSPRLLIKYASESMSGIPSRFSGSGSGTDFTLSINTVESEDIADYYCQQSHSWPFTFGSGTNLEVK
notes: as the heavy chain of m6: heavy chain of infliximab up to the constant part; as the light chain of m6: light chain of infliximab; IgG1; biotin-labelled form of m6; Used native or pre-incubated at the indicated temperatures; also called bIFX; biotin-labelled IFX; source: therapeutic monoclonal antibody; biotinylated; copies: 2 + 2
B2: Infliximab, monoclonal therapeutic IgG directed to tumor necrosis factor (TNF) (antibody, V domains shown)
VH: B1 VH
VL: B1 VL
notes: heavy chain of infliximab up to the constant part; light chain of infliximab; IgG1; Used native or pre-incubated at 37-67 °C; also called IFX; source: therapeutic monoclonal antibody; copies: 2 + 2

Legend:
[1] = biological target: T1, tumor necrosis factor (TNF) (UniProt P01375); experiment: ELISA; TNF coated in ELISA wells; bIFX pre-incubated at the indicated temperatures in solution; conditions: both partners purified
T1 construct: tumor necrosis factor; also called trimeric TNF

[2] = biological target: T1, tumor necrosis factor (TNF); experiment: bead-based fluorescent sandwich/bridging immunoassay; IFX incubated first at 37-57 °C (up to 67 °C) and then covalently immobilised on fluorescent beads; TNF as bridge; native bIFX in solution; detection with PE-streptavidin; conditions: both partners purified

Binder	binding result [1]	binding result [2]
B1	binds	–
B2	–	binds
